Earlier results on one compound are cited in patent US10456404B2, “Targeting cGMP-related phosphodiesterases to reduce cyst formation in cystic kidney disease, and related materials and methods” (Indiana University Research and Technology Corporation, priority 2015, dated 2019).

Amino acid sequences for entries named in this document (tags omitted). A change or cut given only in a name is not applied to a line headed by its entry.
UniProt O70628: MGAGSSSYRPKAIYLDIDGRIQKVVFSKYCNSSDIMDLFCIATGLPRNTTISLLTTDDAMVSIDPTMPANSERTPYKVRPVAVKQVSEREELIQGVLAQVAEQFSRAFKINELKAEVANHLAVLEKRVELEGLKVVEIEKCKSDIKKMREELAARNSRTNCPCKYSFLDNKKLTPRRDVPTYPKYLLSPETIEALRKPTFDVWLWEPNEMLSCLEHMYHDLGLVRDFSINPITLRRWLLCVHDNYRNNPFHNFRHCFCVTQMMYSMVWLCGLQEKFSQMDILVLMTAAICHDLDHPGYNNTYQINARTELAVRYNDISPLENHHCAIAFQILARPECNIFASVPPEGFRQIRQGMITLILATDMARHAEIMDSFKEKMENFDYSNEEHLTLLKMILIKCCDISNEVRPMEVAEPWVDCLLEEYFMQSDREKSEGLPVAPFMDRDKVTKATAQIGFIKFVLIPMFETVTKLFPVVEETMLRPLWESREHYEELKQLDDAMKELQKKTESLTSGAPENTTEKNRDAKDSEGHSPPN

The target of this series is murine PDE9 (Mus musculus, UniProt O70628). The conditions noted are these: cited from earlier work.

As for `C[C@H](Cc1nc2c(cnn2-c2ccccc2Cl)c(=O)[nH]1)C(F)(F)F` [BAY 73-6691, 1-(2-chlorophenyl)-6-[(2R)-3,3,3-trifluoro-2-methylpropyl]-1,5-dihydro-4H-pyrazolo[3,4-d]pyrimidine-4-one], the “inhibition of murine PDE9 activity in vitro” value is listed as “selectively inhibit”.
